# According to PMC8915576 (Frontiers in Pain Research, 2021):
# Test system: MOPr-VACC inhibition in DRG neurons
# Test: Chronic desensitization of MOPr-VACC inhibition in DRG neurons
# Assay type: cell-based, mouse
# Conditions: pre-incubation 10-240′, NKTR-181 30 μM, fentanyl 1 μM, morphine 10 μM, oxycodone 10 μM
row,SMILES,chronic desensitization (DAMGO 1 μM VACC inhibition after pre-incubation)
1,"COc1ccc2c3c1O[C@H]1C(=O)CC[C@@]4(O)[C@@H](C2)N(C)CC[C@]314 [Oxycodone, oxycodone]",neither morphine nor oxycodone induced desensitization at any stage
2,"CN1CC[C@]23c4c5ccc(O)c4O[C@H]2[C@@H](O)C=C[C@H]3[C@H]1C5 [Morphine, morphine]",neither morphine nor oxycodone induced desensitization at any stage
3,"C[C@@H](NC(=O)[C@@H](N)Cc1ccc(O)cc1)C(=O)NCC(=O)N(C)[C@@H](Cc1ccccc1)C(=O)NCCO [DAMGO, [D-Ala^2, N-MePhe^4, Gly-ol]-enkephalin]","induced desensitization after 30, 60, 120, and 240′"
